The experiment is described as follows: Selectivity index, ratio of IC50 for horse BuChE to IC50 for electric eel AChE.
Regarding `COc1c(Br)cc(C/C(=N\O)C(=O)NCCc2nc(N)[nH]c2C(O)(Cc2cc(Br)c(OC)c(Br)c2)C(=O)NCCc2cnc(N)[nH]2)cc1Br` (stereo not drawn), the Ratio IC50 is below 0.14.
The value for `CNCCCOc1c(Br)cc(CCNC(=O)/C(Cc2ccc(OC)c(Br)c2)=N/O)cc1Br` was 0.5; that for `COc1ccc(C/C(=N\O)C(=O)NCCc2cc(Br)c(OCCCN(C)C)c(Br)c2)cc1Br` was 2.2.
